Experimental findings from patent US7807162B2, “Single domain VHH antibodies against von Willebrand factor” (Ablynx N.V., priority 2005, dated 2010) are described below.

Data set [1] relates to cyclic flow reductions (CFRs) in injured, stenosed femoral artery. Put plainly: Folts thrombosis model in baboons: length/inhibition of cyclic flow reductions (CFRs). To be noted: in vivo. More on the design: species or system baboon (Papio ursinus). The source says:
The study protocol that was applied is the original Folts model and some modifications described below (Folts J D, et al, Circulation. 1976; 54:365-370). Healthy male or female baboons (Papio ursinus) were used. The animals were 8-17 kg of weight and were disease-free for at least 2 weeks prior to use. The baboons were fed with dry standard food only. The baboons were used at different time points. The weight of the baboons are summarized in table 42 (efficacy study ALX-0081 and comparison with individual drugs) and table 50 (efficacy of a combination of drugs and ALX-0081 on top of this combination). Animals were anaesthetized and body temperature is maintained at 37° C. with a heating table. A segment of a femoral artery was dissected free from surrounding tissue. A shunt was placed between the femoral vein and femoral artery to obtain high shear rates. The mean and phasic blood flow was recorded continuously throughout the experiment. Baseline flow was recorded for 20 minutes. […] A clamp was placed over the injured site to create an external stenosis. A gradual decline in blood flow due to platelet adhesion and aggregation was observed. When flow was reduced to zero, blood flow was restored by opening the clamp to dislodge the platelet-rich thrombus. […] The anti-thrombotic effect was quantified by comparing the length of CFRs before and after drug administration. […]

A short description of data set [2]: Immunogenicity analysis in baboons treated for 8 weeks (ELISA and Biacore). To be noted: three baboons, increasing doses starting from 10 μg/kg. It is filed as in vivo, baboon. How it is done: The presence of ALX-0081 immunoglobulins in plasma of three baboons was evaluated by two methods, respectively an ELISA method and a SPR-based method on Biacore. The baboons were treated for 8 weeks with increasing doses of ALX-0081 (starting from 10 μg/kg).
For orientation: In an ELISA, binding on a coated surface is turned into a signal by an enzyme label.

The nature of data set [3]: Bleeding analysis in Folts baboons (blood loss in gauzes). To be noted: for Blood loss relative to the second control gauze: individual baboons 17-24.

Where “and” joins values, the source holds several entries; their conditions need not be identical. Equal entries are not always repeated.

B1: ALX-0081: ALX-0081 (SEQ ID NO:98), Nanobody; humanised bivalent nanobody with the 3a linker (protein)
VHH: EVQLVESGGGLVQPGGSLRLSCAASGRTFSYNPMGWFRQAPGKGRELVAAISRTGGSTYYPDSVEGRFTISRDNAKRMVYLQMNSLRAEDTAVYYCAAAGVRAEDGRVRTLPSEYTFWGQGTQVTVSSAAAEVQLVESGGGLVQPGGSLRLSCAASGRTFSYNPMGWFRQAPGKGRELVAAISRTGGSTYYPDSVEGRFTISRDNAKRMVYLQMNSLRAEDTAVYYCAAAGVRAEDGRVRTLPSEYTFWGQGTQVTVSS
B1: in data set [1], the “dose required for full inhibition of CFRs, fold lower than the dose needed for Reopro” value was “approximately 10 fold”. Further, in data set [2], the immunogenic response entry is “no immunogenic response could be observed”. In data set [3] (19 μg/ml), the “concentration at 10-fold blood loss as multiple of the effective concentration” value is listed as 40-60 fold. Besides, the “Blood loss relative to the second control gauze, Average” value in data set [3] (ALX-0081 final dose 3 μg/kg) turned out to be 1.0; in data set [3] (ALX-0081 final dose 13 μg/kg), 1.0; in data set [3] (ALX-0081 final dose 43 μg/kg), 2.9; in data set [3] (ALX-0081 final dose 133 μg/kg), 3.0; in data set [3] (ALX-0081 final dose 403 μg/kg), 3.2. Besides, the “Blood loss relative to the second control gauze” value is 0.4 and 1.2 and 0.5 and 1.1 and 1.8 and 0.8 in data set [3] (ALX-0081 final dose 3 μg/kg); 1.2 (2×) and 0.8 and 0.1 and 1.1 (3×) and 1.3 in data set [3] (ALX-0081 final dose 13 μg/kg); 2.8 and 2.0 and 4.1 and 3.9 and 2.1 and 3.8 and 3.0 and 1.6 in data set [3] (ALX-0081 final dose 43 μg/kg); 2.5 and 3.1 and 2.0 and 0.4 and 4.0 and 5.3 and 5.6 and 1.4 in data set [3] (ALX-0081 final dose 133 μg/kg); 2.6 and 2.3 (2×) and 0.4 and 0.8 and 5.6 and 10.7 and 0.9 in data set [3] (ALX-0081 final dose 403 μg/kg). Besides, the “Blood loss in gauzes relative to the second control gauze, median ± STD” value in data set [3] (on top of Aspegic/Heparin/Plavix combination: Epinephrin + effective dose ALX-0081) is 2.0 ± 10.3. The “Blood loss in gauzes relative to the second control gauze” value in data set [3] (on top of Aspegic/Heparin/Plavix combination: Epinephrin + effective dose ALX-0081, individual baboons 4-10) was 23.4 and 2.0 and 1 and 39.4 and 1.3 and 4.5 and 0.8. The “total blood loss, fold less than in Plavix treated animals” value in data set [3] (sum of the first five doses) is recorded as 2 fold. For the same molecule, the “total blood loss, fold less than in Reopro treated animals” value in data set [3] (sum of the first five doses) came out at 4 fold.
